The test system of this assay is Human immunodeficiency virus 1. Nature of the assay: Antiviral activity against HIV1 3B infected in human MT4 cells assessed as inhibition of virus-induced […] after 5 days by MTT assay. The format is functional, organism-based. The settings on record: Human immunodeficiency virus 1, 3B, MT4, 120 h. On the technique in general: Formazan colour is commonly taken as a measure of viable cells.

pEC50: −log10 of the molar value.

Turning to `Cc1cn([C@H]2C[C@H](N=[N+]=[N-])[C@@H](CO)O2)c(=O)[nH]c1=O` [ZIDOVUDINE], the negative-log EC50 (pEC50) (as a rule, the negative decadic logarithm of the EC50, by convention in mol/L) was 8.15.
